The chains behind the UniProt entries cited, without tags or fusion partners. Where a name states a change or a piece, a line headed by the entry shows the natural chain unless it says otherwise.
UniProt P35372, whole entry, looked up: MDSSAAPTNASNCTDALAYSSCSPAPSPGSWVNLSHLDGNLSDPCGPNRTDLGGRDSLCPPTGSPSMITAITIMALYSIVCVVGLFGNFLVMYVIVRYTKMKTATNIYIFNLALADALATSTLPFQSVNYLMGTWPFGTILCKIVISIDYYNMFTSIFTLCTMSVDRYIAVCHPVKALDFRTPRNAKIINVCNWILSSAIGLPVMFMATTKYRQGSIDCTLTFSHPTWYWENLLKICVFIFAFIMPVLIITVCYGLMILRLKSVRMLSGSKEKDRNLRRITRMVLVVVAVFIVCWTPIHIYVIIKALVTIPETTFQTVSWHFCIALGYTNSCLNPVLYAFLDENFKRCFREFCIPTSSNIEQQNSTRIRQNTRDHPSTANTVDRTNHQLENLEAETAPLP
UniProt P41146: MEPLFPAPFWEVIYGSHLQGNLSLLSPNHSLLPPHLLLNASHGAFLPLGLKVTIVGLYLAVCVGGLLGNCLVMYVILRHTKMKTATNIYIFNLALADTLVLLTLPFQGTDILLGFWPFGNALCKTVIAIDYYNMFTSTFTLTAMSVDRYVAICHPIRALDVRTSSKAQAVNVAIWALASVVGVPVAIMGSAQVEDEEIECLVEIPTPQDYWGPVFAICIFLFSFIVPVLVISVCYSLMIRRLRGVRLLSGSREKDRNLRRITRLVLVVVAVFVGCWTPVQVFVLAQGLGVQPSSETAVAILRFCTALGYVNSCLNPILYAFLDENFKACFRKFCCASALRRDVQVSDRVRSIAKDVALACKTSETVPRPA

In US7439394B2, “Cyclohexyl-1,4-diamine compounds” (dated 2008):

The compounds below were run against human μ-opiate receptor (Homo sapiens, UniProt P35372) (assay: Measurement of μ binding ([3H]-naloxone displacement, CHO-K1 membrane preparation)). Conditions: test substance 1 μM; displacement of [3H]-naloxone 1 nmol/l.

Compound | μ-Opiate receptor [1 μM], % inhibition [%]
CC(NC(=O)OCc1ccccc1)C(=O)NC1CCC(Cc2ccccc2Cl)(N(C)C)CC1 (stereo not shown) | 82
CN(C)C1(Cc2ccccc2)CCC(NC(=O)C(Cc2ccccc2)NC(=O)OC(C)(C)C)CC1 (stereo not shown) | 52
CN(C)C1(Cc2cccc(F)c2)CCC(NC(=O)C(Cc2ccccc2)NC(=O)OC(C)(C)C)CC1 (stereo not shown) | 52
CC(NC(=O)OCc1ccccc1)C(=O)NC1CCC(Cc2ccccc2)(N(C)C)CC1 (stereo not shown) | 41
CN(C)C1(Cc2ccccc2Cl)CCC(NC(=O)C(Cc2ccccc2)NC(=O)OC(C)(C)C)CC1 (stereo not shown) | 73
CC(NC(=O)OCc1ccccc1)C(=O)NC1CCC(Cc2cccc(Cl)c2)(N(C)C)CC1 (stereo not shown) | 46
Cc1ccccc1CC1(N(C)C)CCC(NC(=O)C(Cc2ccccc2)NC(=O)OCc2ccccc2)CC1 (stereo not shown) | 78
CN(C)C1(c2cccc(F)c2)CCC(NC(=O)CCNC(=O)OC(C)(C)C)CC1 (stereo not shown) | 97
Cc1cccc(CC2(N(C)C)CCC(NC(=O)C(CO)NC(=O)OC(C)(C)C)CC2)c1 (stereo not shown) | 56
N-[4-Dimethylammino-4-(2-methyl-benzyl)-cyclohexyl]-3-phenyl-2-(tolyl-4-sulfonylamino)-propionamide | 53
Cc1ccccc1CC1(N(C)C)CCC(NC(=O)C(C)(C)Oc2ccc(CCNC(=O)c3ccc(Cl)cc3)cc2)CC1 (stereo not shown) | 53
Cc1ccccc1CC1(N(C)C)CCC(NC(=O)C(NC(=O)OCc2ccccc2)c2ccccc2)CC1 (stereo not shown) | 86
N-(4-Dimethylamino-4-thiophen-2-yl-cyclohexyl)-3-phenyl-2-(tolyl-4-sulfonylamino)-propionamide | 96
Cc1cccc(CC2(N(C)C)CCC(NC(=O)C(Cc3ccccc3)NC(=O)OC(C)(C)C)CC2)c1 (stereo not shown) | 62
({1-[4-Dimethylamino-4-(3-fluoro-benzyl)-cyclohexylcarbamoyl]-3-methyl-butylcarbamoyl}-methyl)-carbamic acidbenzyl ester | 71
CN(C)C1(Cc2ccccc2F)CCC(NC(=O)C(Cc2ccccc2)NC(=O)OC(C)(C)C)CC1 (stereo not shown) | 73
{[1-(4-Benzyl-4-dimethylamino-cyclohexylcarbamoyl)-3-methyl-butylcarbamoyl]-methyl}-carbamic acidbenzyl ester | 79
({1-[4-Dimethylamino-4-(2-fluoro-benzyl)-cyclohexylcarbamoyl]-3-methyl-butylcarbamoyl}-methyl)-carbamic acidbenzyl ester | 78
N-[4-(2-Chloro-benzyl)-4-dimethylamino-cyclohexyl]-3-phenyl-2-(tolyl-4-sulfonylamino)-propionamide | 64
({1-[4-Dimethylamino-4-(3-methyl-benzyl)-cyclohexylcarbamoyl]-3-methyl-butylcarbamoyl}-methyl)-carbamic acidbenzyl ester | 71
{[1-(4-Dimethylamino-4-phenyl-cyclohexylcarbamoyl)-3-methyl-butylcarbamoyl]-methyl}-carbamic acidbenzyl ester | 95
CC(C)C(NC(=O)OCC1c2ccccc2-c2ccccc21)C(=O)NC1CCC(Cc2ccc(F)cc2)(N(C)C)CC1 (stereo not shown) | 48
CC(C)CC(NC(=O)CNC(=O)OCc1ccccc1)C(=O)NC1CCC(Cc2cccc(Cl)c2)(N(C)C)CC1 (stereo not shown) | 59
CC(C)CC(NC(=O)CNC(=O)OCc1ccccc1)C(=O)NC1CCC(c2ccccc2)(N2CCCCC2)CC1 (stereo not shown) | 43

Compound | μ-Opiate receptor [1 μM], % inhibition [%]
3-tert.-Butoxycarbonylamino-N-[4-(2-chloro-benzyl)-4-dimethylamino-cyclohexyl]-sucinic acid cyclohexylester | 63
{[1-(4-Dimethylamino-4-phenethyl-cyclohexylcarbamoyl)-3-methyl-butylcarbamoyl]-methyl}-carbamic acidbenzyl ester | 69
{[1-(4-Dimethylamino-4-thiophen-2-yl-cyclohexylcarbamoyl)-3-methyl-butylcarbamoyl]-methyl}-carbamic acidbenzyl ester | 97
CC(NC(=O)OCc1ccccc1)C(=O)NC1CCC(CCc2ccccc2)(N(C)C)CC1 (stereo not shown) | 56
Cc1ccccc1CC1(N(C)C)CCC(NC(=O)C(C)NC(=O)OCc2ccccc2)CC1 (stereo not shown) | 61
CCCCC(NC(C)=O)C(=O)NC1CCC(Cc2ccccc2Cl)(N(C)C)CC1 (stereo not shown) | 65
O=C(NC(C(=O)NC1CCC(Cc2ccccc2)(N2CCCCCC2)CC1)c1ccccc1)OCc1ccccc1 (stereo not shown) | 84
CN(C)C1(Cc2ccccc2)CCC(NC(=O)CCCCCNC(=O)OCc2ccccc2)CC1 (stereo not shown) | 54
Cc1cccc(CC2(N(C)C)CCC(NC(=O)C(C)NC(=O)OCc3ccccc3)CC2)c1 (stereo not shown) | 47
CC(C)CC(NC(=O)CNC(=O)OCc1ccccc1)C(=O)NC1CCC(Cc2ccccc2)(N2CCCCC2)CC1 (stereo not shown) | 46
({1-[4-Dimethylamino-4-(3-fluoro-phenyl)-cyclohexylcarbamoyl]-3-methyl-butylcarbamoyl}-methyl)-carbamic acidbenzyl ester | 101
CN(C)C1(Cc2ccccc2Cl)CCC(NC(=O)C(NC(=O)OCc2ccccc2)c2ccccc2)CC1 (stereo not shown) | 82
Cc1ccccc1CC1(N(C)C)CCC(NC(=O)C(Cc2ccccc2)NC(=O)OC(C)(C)C)CC1 (stereo not shown) | 59
Cc1ccccc1CC1(N(C)C)CCC(NC(=O)C(NC(=O)OCC2c3ccccc3-c3ccccc32)C(C)C)CC1 (stereo not shown) | 46
CC(NC(=O)OCc1ccccc1)C(=O)NC1CCC(c2cccs2)(N(C)C)CC1 (stereo not shown) | 96
Cc1ccc(CC2(N(C)C)CCC(NC(=O)C(CO)NC(=O)OC(C)(C)C)CC2)cc1 (stereo not shown) | 42
CC(C)CC(NC(=O)CNC(=O)OCc1ccccc1)C(=O)NC1CCC(Cc2ccc(Cl)cc2)(N(C)C)CC1 (stereo not shown) | 52
Cc1ccc(CC2(N(C)C)CCC(NC(=O)C(C)NC(=O)OCc3ccccc3)CC2)cc1 (stereo not shown) | 41
({1-[4-Dimethylamino-4-(4-methyl-benzyl)-cyclohexylcarbamoyl]-3-methyl-butylcarbamoyl}-methyl)-carbamic acidbenzyl ester | 58
N-(4-Dimethylamino-4-pyridin-2-yl-cyclohexyl)-3-phenyl-2-(tolyl-4-sulfonylamino)-propionamide | 95
CN(C)C1(Cc2cccc(Cl)c2)CCC(NC(=O)C(CO)NC(=O)OC(C)(C)C)CC1 (stereo not shown) | 54
({1-[4-Dimethylamino-4-(2-methyl-benzyl)-cyclohexylcarbamoyl]-3-methyl-butylcarbamoyl}-methyl)-carbamic acidbenzyl ester | 62
CC(C)CC(NC(=O)c1ccccc1)C(=O)NC1CCC(Cc2ccc(F)cc2)(N(C)C)CC1 (stereo not shown) | 76
Cc1ccc(CC2(N(C)C)CCC(NC(=O)CCCCCNC(=O)OCc3ccccc3)CC2)cc1 (stereo not shown) | 44

What follows are compounds tested against ORL1 receptor (Homo sapiens, UniProt P41146) (assay: Measurement of ORL1 binding (3H-nociceptin/orphanin FQ, membranes of recombinant CHO-ORL1 cells)). Conditions: c=1 μM; 3H-nociceptin/orphanin FQ 0.5 nM.

Compound | ORL-1 receptor [1 μM], % inhibition [%]
CN(C)C1(c2cccc(F)c2)CCC(NC(=O)CCNC(=O)OC(C)(C)C)CC1 (stereo not shown) | 66
N-(4-Dimethylamino-4-thiophen-2-yl-cyclohexyl)-3-phenyl-2-(tolyl-4-sulfonylamino)-propionamide | 86
{[1-(4-Dimethylamino-4-phenyl-cyclohexylcarbamoyl)-3-methyl-butylcarbamoyl]-methyl}-carbamic acidbenzyl ester | 96
{[1-(4-Dimethylamino-4-thiophen-2-yl-cyclohexylcarbamoyl)-3-methyl-butylcarbamoyl]-methyl}-carbamic acidbenzyl ester | 89
({1-[4-Dimethylamino-4-(3-fluoro-phenyl)-cyclohexylcarbamoyl]-3-methyl-butylcarbamoyl}-methyl)-carbamic acidbenzyl ester | 98
CC(NC(=O)OCc1ccccc1)C(=O)NC1CCC(c2cccs2)(N(C)C)CC1 (stereo not shown) | 54
N-(4-Dimethylamino-4-pyridin-2-yl-cyclohexyl)-3-phenyl-2-(tolyl-4-sulfonylamino)-propionamide | 59
